Reference: PubChem BioAssay AID504734 (The Scripps Research Institute Molecular Screening Center, 2011)
This is a selection; strong and weak results do not stand in their true shares. Active and inactive are the calls of the source.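 How the source made its calls: active means inhibition above the mean over all tested compounds plus 3 SD (cut at about 21% in these data); inactive means the rest.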

Amino acid sequences for entries named in this document (tags omitted).
UniProt Q9NR96, whole entry: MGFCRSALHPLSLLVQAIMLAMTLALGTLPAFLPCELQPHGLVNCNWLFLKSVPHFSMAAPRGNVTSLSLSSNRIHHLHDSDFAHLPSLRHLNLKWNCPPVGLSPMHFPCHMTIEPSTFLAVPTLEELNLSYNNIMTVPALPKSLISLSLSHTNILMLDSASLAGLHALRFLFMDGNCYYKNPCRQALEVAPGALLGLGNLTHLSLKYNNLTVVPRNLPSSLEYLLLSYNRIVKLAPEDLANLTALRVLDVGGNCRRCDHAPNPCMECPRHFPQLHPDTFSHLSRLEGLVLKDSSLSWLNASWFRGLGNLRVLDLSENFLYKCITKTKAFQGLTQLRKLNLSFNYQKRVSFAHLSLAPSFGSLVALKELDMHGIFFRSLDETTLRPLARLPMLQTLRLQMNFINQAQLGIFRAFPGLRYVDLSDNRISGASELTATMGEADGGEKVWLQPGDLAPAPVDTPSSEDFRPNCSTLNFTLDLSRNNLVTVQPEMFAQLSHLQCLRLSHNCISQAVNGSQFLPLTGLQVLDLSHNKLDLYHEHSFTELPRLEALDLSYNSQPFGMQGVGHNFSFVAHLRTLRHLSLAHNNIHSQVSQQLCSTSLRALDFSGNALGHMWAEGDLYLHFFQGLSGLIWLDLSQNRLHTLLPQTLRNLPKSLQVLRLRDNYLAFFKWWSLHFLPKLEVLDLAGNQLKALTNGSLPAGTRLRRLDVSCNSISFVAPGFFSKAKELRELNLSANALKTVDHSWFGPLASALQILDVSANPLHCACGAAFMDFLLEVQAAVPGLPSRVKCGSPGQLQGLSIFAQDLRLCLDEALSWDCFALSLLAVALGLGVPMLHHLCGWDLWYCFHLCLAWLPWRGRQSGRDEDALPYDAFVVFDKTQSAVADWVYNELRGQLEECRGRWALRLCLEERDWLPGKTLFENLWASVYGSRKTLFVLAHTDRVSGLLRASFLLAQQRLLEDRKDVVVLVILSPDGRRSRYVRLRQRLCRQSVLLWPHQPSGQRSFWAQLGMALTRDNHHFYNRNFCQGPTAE

Molecular target: Toll-like receptor 9 (Homo sapiens) + Myeloid differentiation primary response protein MyD88 (Homo sapiens) (UniProt Q9NR96+Q99836)
Test: inhibitors of TLR9-MyD88 association in cells, primary screen, cell-based, CHO, BLA complementation, fluorescence (AID 504734);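 further: 0% = DMSO only wells and 100% = clavulanate BLA inhibitor control wells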
Conditions: CHO BLA complementation TLR9-MyD88, CCF4 FRET ratio; at 4.98 µM; hits give high values

Structure (SMILES) | inhibition
COc1ccc(C(=O)NCC2(N3CCCCC3)CCCCC2)cc1 | inactive: 3.03%
COc1ccc(C(=O)NCC2(N3CCCCC3)CCCCC2)c(OC)c1OC | inactive: -3.84%
CC(C)(C)OC(=O)N1CCC(N(C(=O)c2ccccc2)c2ccc(F)cc2)CC1 | inactive: -12%
O=C(NCC1(N2CCCCC2)CCCCC1)c1ccc(=O)[nH]c1 | inactive: -0.71%
O=C(NCC1(N2CCCCC2)CCCCC1)c1cccs1 | inactive: 0.86%
CSc1ccccc1C(=O)NCC1(N2CCCCC2)CCCCC1 | inactive: -4.07%
Cc1cccc(NC2(C#N)CCN(Cc3ccccc3)CC2)c1 | inactive: -3.9%
O=C(NCC1(N2CCCCC2)CCCCC1)c1ccc(Cl)nc1 | inactive: 0.87%
Cc1cc(C)cc(N(C(=O)c2ccccc2)C2CCN(C(=O)OC(C)(C)C)CC2)c1 | inactive: -3.38%
O=C(NCC1(N2CCOCC2)CCCCC1)c1cc2ccccc2o1 | inactive: 7.94%
O=C(OC1CN2CCC1CC2)C1c2ccccc2Oc2ccccc21 (stereo not given) | inactive: -3.21%
O=C(NCC1(N2CCCCC2)CCCCC1)c1ccc(Cl)s1 | inactive: 5.1%
N#CC1(Nc2ccccc2)CCN(Cc2ccccc2)CC1 | inactive: -1.12%
COc1ccc(Cl)cc1C(=O)NCC1(N2CCOCC2)CCCCC1 | inactive: -10.6%
CCOC(=O)N1CCC(Nc2ccc(OC)cc2)CC1 | inactive: 5.27%
O=C1CCN(Cc2ccccc2)CC1 | inactive: -5.93%
CCOc1ccc(C)cc1CN(CCCl)CCCl | inactive: -15.5%
O=C(NCC1(N2CCCCC2)CCCCC1)c1ccc(F)cc1 | inactive: 3.43%
CCCCOc1ccc(C(=O)NCC2(N3CCOCC3)CCCCC2)cc1 | inactive: 0.16%
O=P1(N(CCCl)CCCl)SCCCS1 | inactive: 0.05%
CCOC(=O)N1CCC(Nc2ccc(F)cc2)CC1 | inactive: 5.8%
COc1ccc(NC2CCN(CCc3ccccc3)CC2)c(OC)c1 | inactive: -4.8%
COc1cc(C(=O)NCC2(N(C)C)CCCCC2)ccc1OC(F)F | inactive: 0.27%
CCOC(=O)N1CCC(Nc2cccc(C)c2)CC1 | inactive: -7.55%
O=C(NCC1(N2CCCCC2)CCCCC1)c1ccc(OC(F)F)cc1 | inactive: 7.02%

Structure (SMILES) | inhibition
CCN1CCC(Nc2ccc(Cl)cc2)CC1 | inactive: -11.5%
N#CC1(Nc2ccccc2)CCN(CCc2ccccc2)CC1 | inactive: 7.14%
O=C(NCC1(N2CCCCC2)CCCCC1)c1cccc([N+](=O)[O-])c1 | inactive: 0.68%
CSc1ccc(C(=O)NCC2(N3CCOCC3)CCCCC2)cc1 | inactive: 2.94%
O=C(NCC1(N2CCCCC2)CCCCC1)c1cccc(C(F)(F)F)c1 | inactive: 3.95%
O=C(NCC1(N2CCOCC2)CCCCC1)c1cc(=O)[nH]c2ccccc12 | inactive: -6.62%
COc1cc(C(=O)NCC2(N3CCCCC3)CCCCC2)ccc1OC(F)F | inactive: 2.08%
COc1ccc(NC2CCN(C(=O)OC(C)(C)C)CC2)cc1 | inactive: -15.9%
CC(C)c1ccc(C(=O)NCC2(N3CCOCC3)CCCCC2)cc1 | inactive: 3.81%
CN1CCN(CCOC(=O)C(O)(c2ccccc2)c2ccccc2)CC1 | inactive: -10.5%
CC(C)c1ccc(NC2CCN(C(=O)OC(C)(C)C)CC2)cc1 | inactive: -5.87%
COc1ccc(CN(CCCl)CCCl)cc1Cl | inactive: 0.61%
CN(C)c1cccc(C(=O)NCC2(N3CCCCC3)CCCCC2)c1 | inactive: -2.04%
COc1cc(OC)c(C(=O)NCC2(N(C)C)CCCCC2)cc1OC | inactive: 0.38%
O=C(NCC1(N2CCOCC2)CCCCC1)c1cc(F)c(F)cc1Cl | inactive: -7.02%
O=C(NCC1(N2CCCCC2)CCCCC1)c1cncc(Br)c1 | inactive: 1%
CN1CCC(Nc2cccc(F)c2)CC1 | inactive: -3.16%
Cc1ccc(C(=O)NCC2(N(C)C)CCCCC2)o1 | inactive: -1.17%
CCCOc1ccc(C(=O)NCC2(N(C)C)CCCCC2)cc1OC | inactive: 4.98%
COc1cc(C(=O)NCC2(N3CCOCC3)CCCCC2)cc(OC)c1C | inactive: -16.1%
O=C(NCC1(N2CCOCC2)CCCCC1)c1cc(Br)ccc1Cl | inactive: -19.8%
COc1ccc(C(=O)NCC2(N3CCOCC3)CCCCC2)cc1OC | inactive: -2.16%
CCOC(=O)N1CCC(Nc2ccc(C)cc2)CC1 | inactive: 5.1%
N/C(=N\O)c1c(N)no[n+]1[O-] | inactive: -9.07%
O=C(OC1CN2CCC1CC2)C1c2ccccc2C=Cc2ccccc21 (stereo not given) | inactive: -1.69%

Structure (SMILES) | inhibition
N#Cc1ccc(C(=O)NCC2(N3CCCCC3)CCCCC2)cc1 | inactive: 1.9%
CC(C)(C)OC(=O)N1CCC(N(C(=O)c2ccccc2)c2ccc(Cl)cc2)CC1 | inactive: -1.92%
CN(C)C1(CNC(=O)c2cccc(C#N)c2)CCCCC1 | inactive: 6.13%
c1ccc(CN2CCC(Nc3ccccc3)CC2)cc1 | inactive: -0.21%
CCCN1CCC(Nc2cc(OC)cc(OC)c2)CC1 | inactive: 1.86%
Cc1cc(N(CCCl)CCCl)ccc1C=O | inactive: -8.21%
CC(=O)N(c1ccccc1)C1CCNCC1 | inactive: 5.38%
COc1cc(OC)cc(C(=O)NCC2(N3CCCCC3)CCCCC2)c1 | inactive: 1.94%
Cc1ccc(C(=O)NCC2(N3CCCCC3)CCCCC2)o1 | inactive: -1.62%
Fc1ccccc1NC1CCN(Cc2ccccc2)CC1 | inactive: 3.52%
Cc1ccc(NC2(C#N)CCN(Cc3ccccc3)CC2)cc1 | inactive: 12.8%
Cc1ccccc1NC1(C#N)CCN(Cc2ccccc2)CC1 | inactive: -4.17%
CCN1CCC(Nc2cccc(F)c2)CC1 | inactive: -1.01%
O=C(NCC1(N2CCCCC2)CCCCC1)c1ccco1 | inactive: 7.97%
Cn1c(=O)[nH]cc(N(CCCl)CCCl)c1=O | inactive: 1.07%
CN(C)c1ccc(C(=O)NCC2(N3CCCCC3)CCCCC2)cc1 | inactive: 1.04%
CCOc1ncccc1C(=O)NCC1(N2CCOCC2)CCCCC1 | inactive: -9.44%
CN1CCC(Nc2ccc(F)c(Cl)c2)CC1 | inactive: -3.48%
CC(C)(C)OC(=O)N1CCC(Nc2ccccc2)CC1 | inactive: 6.77%
O=C(O)C1(Nc2ccccc2)CCN(Cc2ccccc2)CC1 | inactive: -9.59%
CCCOc1ccc(C(=O)NCC2(N(C)C)CCCCC2)cc1 | inactive: 8.09%
COc1cccc(C(=O)N(c2cc(C)cc(C)c2)C2CCN(C(=O)OC(C)(C)C)CC2)c1 | inactive: -6.26%
COc1cc(OC)cc(C(=O)NCC2(N3CCOCC3)CCCCC2)c1 | inactive: 4.57%
CCC(CO)(C(=O)OC1CN2CCC1CC2)c1ccccc1 (stereo not given) | inactive: 5.31%
CN1CCC(Nc2ccc(Cl)cc2)CC1 | inactive: 6.01%
